{"source": "patent US11932872B2", "about": "“Dual chimeric antigen receptor-t cell which can be regulated, construction method therefor and use thereof” (NANJING ANJI BIOLOGICAL TECHNOLOGY CO., LTD, priority 2017, dated 2024)", "system": "MSLN+K562 target cells (mixed 1:1 with CEA+K562)", "experiment": "Cytotoxicity test of sdCAR-T cells in vitro", "assay_type": "cell-based, human", "details": "effector:mixed target cells 5:2, 22 h, flow cytometry", "method": "This example verified the killing activity of the constructed sdCAR-T cells on tumor cells in vitro, and the selected target cells were MSLN single positive tumor cells and single positive tumor cells of negative control CEA. A total of four test groups were designed, each group had three parallel wells, and the design of the test group was the same as that of Example 6.\nThe cytotoxicity of sdCAR-T cells was determined according to the survival rate of target cells (MSLN^+K562). The selected target cells were equal mixed cells of MSLN and CEA. Because the constructed sdCAR-T cells had strong tumor specificity, CEA tumor cells were used as a negative control group, and the purpose of setting equal numbers of MSLN single positive cells and CEA single positive cells was to accurately and conveniently calculate the survival rate of MSLN tumor cells in each test group at each time. The survival rate of MSLN target cells in each test group was calculated according to the following formula, and then the tumor killing ability of the constructed CARs-T cells in vitro could be analyzed. […]\n3) The ratio of MSLN and CEA tumor cells in each test group was detected by a flow cytometer, and then the survival rate of MSLN target cells was calculated.", "data": [{"substance": "FHBM: FITC and polypeptide HM-3 coupled to form a bifunctional small molecule; exogenous switching molecule for sdCAR-T cells (IVRRADRAAVPGGGGRGD)", "values": [{"measurement": "survival rate of MSLN tumor cells", "value": 28.74, "unit": "%"}]}]}
